This series is described as follows: total protein half-life in vivo (active degradation + dilution); higher = more stable protein.
Where [1] appears, read: E. coli NCM3722 delta-clpP delta-lon delta-hslV, growth: N-lim chemostat, doubling time 6 h.
Setting [2] is: E. coli NCM3722 delta-clpP, growth: N-lim chemostat, doubling time 6 h.
The mark [3] stands for this setting: E. coli NCM3722 delta-hslV, growth: N-lim chemostat, doubling time 6 h.
[4] abbreviates: E. coli NCM3722 delta-lon, growth: N-lim chemostat, doubling time 6 h.
The mark [5] stands for this setting: E. coli NCM3722 delta-smpB, growth: N-lim chemostat, doubling time 6 h.
The mark [6] stands for this setting: wild type E. coli NCM3722, growth: C-lim chemostat, doubling time 3 h.
Setting [7] is: wild type E. coli NCM3722, growth: C-lim chemostat, doubling time 6 h.
Setting [8] is: wild type E. coli NCM3722, growth: C-lim chemostat, doubling time 12 h.
Where [9] appears, read: wild type E. coli NCM3722, growth: N-lim chemostat, doubling time 6 h.
[10] abbreviates: wild type E. coli NCM3722, growth: N-lim chemostat, doubling time 12 h.
[11] abbreviates: wild type E. coli NCM3722, growth: P-lim chemostat, doubling time 6 h.
[12] abbreviates: wild type E. coli NCM3722, growth: P-lim chemostat, doubling time 12 h.

± gives the standard deviation of the averaged measurements.

This note sets out measurements from the supplement of paper PMC11246515.

With “MAGNKPFNKQQAEPRERDPQVAGLKVPPHSIEAEQSVLGGLMLDNERWDDVAERVVADDFYTRPHRHIFTEMARLQESGSPIDLITLAESLERQGQLDSVGGFAYLAELSKNTPSAANISAYADIVRERAVVREMISVANEIAEAGFDPQGRTSEDLLDLAESRVFKIAESRANKDEGPKNIADVLDATVARIEQLFQQPHDGVTGVNTGYDDLNKKTAGLQPSDLIIVAARPSMGKTTFAMNLVENAAMLQDKPVLIFSLEMPSEQIMMRSLASLSRVDQTKIRTGQLDDEDWARISGTMGILLEKRNIYIDDSSGLTPTEVRSRARRIAREHGGIGLIMIDYLQLMRVPALSDNRTLEIAEISRSLKALAKELNVPVVALSQLNRSLEQRADKRPVNSDLRESGSIEQDADLIMFIYRDEVYHENSDLKGIAEIIIGKQRNGPIGTVRLTFNGQWSRFDNYAGPQYDDE [P0ACB0]”, the “total protein half-life in vivo” value was 6.14 ± 0.4 h under setting [1]; 6.2 ± 2.1 h under setting [2]; 4.45 ± 0.096 h under setting [3]; 4.64 ± 0.25 h under setting [4]; 4.46 ± 0.18 h under setting [5]; 2.834 ± 0.023 h under setting [6]. The “total protein half-life in vivo” value under setting [7] stood at 5.5521 ± 0.0032 h; the “total protein half-life in vivo” value under setting [8] came to 9.543 ± 0.032 h; the “total protein half-life in vivo” value under setting [9] is 4.44 ± 0.45 h; the “total protein half-life in vivo” value under setting [10] turned out to be 7.67 ± 0.26 h; the “total protein half-life in vivo” value under setting [11] was 5.76 ± 0.48 h; the “total protein half-life in vivo” value under setting [12] was 11.9 ± 1.4 h.
Regarding “MAKGQSLQDPFLNALRRERVPVSIYLVNGIKLQGQIESFDQFVILLKNTVSQMVYKHAISTVVPSRPVSHHSNNAGGGTSSNYHHGSSAQNTSAQQDSEETE [P0A6X3]”, the “total protein half-life in vivo” value under setting [1] turned out to be 5.56 ± 0.51 h; the “total protein half-life in vivo” value under setting [2] came out at 6.21 ± 0.57 h; the “total protein half-life in vivo” value under setting [3] is 5.27 ± 1.6 h; the “total protein half-life in vivo” value under setting [5] turned out to be 5.24 ± 0.79 h; the “total protein half-life in vivo” value under setting [6] was found to be 3.33 ± 0.29 h; the “total protein half-life in vivo” value under setting [8] stood at 13 ± 0.14 h. Also, the “total protein half-life in vivo” value came to 6.9 h under setting [9], 12.3 ± 0.4 h under setting [10], 4.89 ± 0.06 h under setting [11] and 12.8 ± 2.6 h under setting [12].
For “MTLSPYLQEVAKRRTFAIISHPDAGKTTITEKVLLFGQAIQTAGTVKGRGSNQHAKSDWMEMEKQRGISITTSVMQFPYHDCLVNLLDTPGHEDFSEDTYRTLTAVDCCLMVIDAAKGVEDRTRKLMEVTRLRDTPILTFMNKLDRDIRDPMELLDEVENELKIGCAPITWPIGCGKLFKGVYHLYKDETYLYQSGKGHTIQEVRIVKGLNNPDLDAAVGEDLAQQLRDELELVKGASNEFDKELFLAGEITPVFFGTALGNFGVDHMLDGLVEWAPAPMPRQTDTRTVEASEDKFTGFVFKIQANMDPKHRDRVAFMRVVSGKYEKGMKLRQVRTAKDVVISDALTFMAGDRSHVEEAYPGDILGLHNHGTIQIGDTFTQGEMMKFTGIPNFAPELFRRIRLKDPLKQKQLLKGLVQLSEEGAVQVFRPISNNDLIVGAVGVLQFDVVVARLKSEYNVEAVYESVNVATARWVECADAKKFEEFKRKNESQLALDGGDNLAYIATSMVNLRLAQERYPDVQFHQTREH [P0A7I4]”, the “total protein half-life in vivo” value was determined as 5.61 ± 0.27 h under setting [1]; 5 ± 0.27 h under setting [2]; 6.12 ± 0.53 h under setting [3]; 5.41 ± 0.5 h under setting [4]; 5.28 ± 0.19 h under setting [5]; 3.2 ± 0.41 h under setting [6]. Also, the “total protein half-life in vivo” value by setting is: under setting [7], 5.83 ± 0.28 h; under setting [8], 11.4 ± 2.5 h; under setting [9], 4.98 ± 0.058 h; under setting [10], 9.18 ± 0.67 h; under setting [11], 6.24 ± 0.84 h; under setting [12], 12.3 ± 3 h.
